Values joined by “and” are separate entries in the source; they are usually repeats but may differ in a detail not shown here. Equal entries are not always repeated.
Assays:
[1] = Determination of aqueous stability (UHPLC-DAD, 4 h at 37 °C); assay type: physicochemical; conditions: for Aqueous stability pH = 6.8: compound concentration after 4 h of incubation compared to the initial value: pH 6.8 simulated intestinal fluid
Procedure: The aqueous solutions and buffers were prepared as follows: pH = 1.2, 1.0 g NaCl and 3.5 mL HCl dissolved in distilled water to achieve the final volume of 500.0 mL; pH = 6.8, 20.2 g Na2HPO4·7H2O and 3.4 g NaH2PO4·H2O dissolved in distilled water to achieve the final volume of 1000.0 mL, pH adjustment with 0.5 M NaOH or 0.5 M HCl; pH = 7.4, one PBS tablet (phosphate buffered saline, pH 7.4; Sigma Aldrich, St. Louis, MO, USA) dissolved in 200.0 mL of distilled water.
With the aforementioned buffers, 10 mM dimethyl sulfoxide stock solutions of the isolated compounds were diluted 100-fold. […] Statistical differences between the AUC values were evaluated by a paired-sample t-test, changes were considered significant when the p-values were lower than 0.05. Compounds with no notable change in their AUC and with no degradation products detected were considered to be stable. For degradable compounds, the above-mentioned validated UHPLC-DAD method was used to examine the change in compound concentration. All experiments were performed in triplicates (n = 3).

[2] = Parallel artificial membrane permeability assay for the blood–brain barrier (PAMPA-BBB); assay type: in vitro ADME; conditions: donor pH 7.4, acceptor pH 7.4, 37 °C, 4 h, n = 9; Pe in cm/s; n.d. = not detected in the acceptor phase
Procedure: (§1) The test solutions were prepared with dimethyl sulfoxide (DMSO) at the concentration of 10.0 mM. These were diluted with phosphate buffers (pH = 7.4 for the PAMPA-BBB and pH = 6.8 for the PAMPA-GI) to obtain the donor solutions (297.0 μL buffer + 3.0 μL DMSO solution) and filtered through Phenex-RC 15 mm, 0.2 μm syringe filters (Gen-Lab Ltd., Budapest, Hungary). A parallel artificial membrane permeability assay (PAMPA) system was used to determine the effective permeability (Pe) for the compounds of interest. […] After the incubation the PAMPA plates were separated and the compound concentrations in the donor (CD(t)) and acceptor (CA(t)) solutions, as well as in the donor solution at the zero time point (CD(0)) were determined by UHPLC-DAD. The effective permeability and the membrane retention in the PAMPA-BBB (1) and the PAMPA GI (2) experiments were calculated by the following equations [12]:(1) Pe=−2.303/A(t−τSS)·(VA·VD/VA+VD)·lg[1−(VA+VD/(1−MR)·VD)×(CA(t)/CD(0))] […]
(§2) All experiments were performed in triplicates on three consecutive days (n = 9), caffeine standard was used as positive, while rutin as negative control. ClogP values were calculated by ChemAxon Marvin 22.3.

[3] = Parallel artificial membrane permeability assay for the gastrointestinal tract (PAMPA-GI); assay type: in vitro ADME; conditions: donor pH 6.8, acceptor pH 7.4, 37 °C, 4 h, n = 9; Pe in cm/s; n.d. = not detected in the acceptor phase
Procedure: as §1, §2

Row | Compound | Aqueous stability pH = 6.8: compound concentration after 4 h of incubation compared to the initial value ([1]; n = 3, * p < 0.05 vs initial) [%] | maximum decomposition rate measured ([1]; aqueous media) [%] | Aqueous stability pH = 1.2: compound concentration after 4 h of incubation compared to the initial value ([1]; pH 1.2 simulated gastric fluid, n = 3) [%] | Aqueous stability pH = 7.4: compound concentration after 4 h of incubation compared to the initial value ([1]; pH 7.4 PBS, n = 3, * p < 0.05 vs initial) | Significance of decrease in compound concentration (in words) ([1]; paired-sample t-test, p < 0.05, pH 1.2, 6.8, 7.4) | log Pe PAMPA-BBB [2] | log Pe PAMPA-GI [3]
1 | O=C(/C=C/CCc1ccc(O)c(O)c1)CCc1ccc(O)c(O)c1 [hirsutenone (3), hirsutenone] | 96.22 ± 2.87 |  |  |  |  |  | 
2 | myricitrin [myricitrin (11)] | 99.94 ± 0.55 | 48.44 | 96.23 ± 2.46 | 48.44 ± 6.15% and 48.44 ± 6.15 * % | decreased significantly only at pH 7.4 | not detected in the acceptor phase | not detected in the acceptor phase

Reference: publication PMC9231376, “Membrane Permeability and Aqueous Stability Study of Linear and Cyclic Diarylheptanoids from Corylus maxima” (Pharmaceutics, 2022)
